From patent US20250305953A1, “LIGHT-EMITTING RADICAL CATION PROBE IN SITU GENERATED BY ACID INDUCTION, AND PREPARATION THEREFOR AND APPLICATION THEREOF” (SOUTH CHINA UNIVERSITY OF TECHNOLOGY, priority 2022, published 2025)

Key:
[1] = Description: 30 μL of DMSO stock solution (200 mM) of the compound P6 (4-(piperidine-1-methylene)-2,5-dimethyl-3-hydroxymethylene-^1H-pyrrole) was added to 2970 μL of the acidic buffer solution (pH=2.0-3.0).
After being mixed well, tests of the time-dependent ultraviolet-visible absorption spectrum and fluorescence spectrum were performed (2 h).

[2] = pH 2.0, 2 h, excitation 600 nm
[3] = glycerol content increased from 0% to 90%, 2 mM, emission 680 nm
Remark: listed apart in the source
[4] = In vivo imaging with laparotomy; parameters: species or system Balb/c nude mice; settings: opened abdomen, gavage of 1.5 mg in 70 μL water, imaged until 120 min
From the text: The mice were anesthetized beforehand, and the gastrointestinal tract was then exposed by a single incision in the abdomen of the mice.

[5] = 2 hours
[6] = not given; remark: listed apart in the source

Cc1cc(CO)c(C)n1-c1ccccc1 [P3, 2,5-dimethyl-3-hydroxymethylene-1-phenyl-^1H-pyrrole]
absorption peak ([1]; acidic buffer solution pH 2.0): 600 nm
fluorescence emission peak ([1]; acidic buffer solution pH 2.0): 680 nm
time for conversion into the radical cation ([1]; acidic buffer solution pH 2.0, air, seen from absorption peak (570 nm converted into 600 nm)): ≤ 5 min
conversion into the radical cation ([1]; acidic buffer solution pH=2.0-2.6, atmosphere of air): rapidly converted
effect of interferents on fluorescence ([2]; metal ions, common anti-oxidizing agents and carbohydrates): would not affect
effect of interferents on fluorescence ([2]; some proteins): significantly increased
fluorescence lifetime (fitting value) [3]: gradually increased
ratio of relative fluorescence intensity (I/I0) ([3]; excitation 600 nm): gradually increased
time for gastric emptying (rise paste group (1.5 mg in 150 μL)): > 180 min
attenuation of gastric fluorescence signal (rise paste group (1.5 mg in 150 μL), within 180 min): no obvious attenuation
time at which the stomach was emptied (water group (1.5 mg in 70 μL)): 180 min
fluorescence signal in the intestinal tract (water group (1.5 mg in 70 μL), 180 min): only a weak fluorescence signal
intestinal fluorescence signal [4]: increases with time
time of strongest fluorescence signal in the stomach [4]: 20 min
in vivo fluorescence signal ([5]; anti-acid group: sodium bicarbonate tablet 250 mg kg^-1 oral before P3): not any fluorescence signal
in vivo fluorescence signal ([5]; gavage in acidic buffer solution (200 μL, pH 2.0)): a fluorescence signal can be generated
in vivo fluorescence signal ([5]; gavage in neutral buffer solution (200 μL, pH 7.0)): not any signal
in vivo fluorescence signal ([5]; normal group: normal saline 1 h before P3): strong fluorescence signal
fluorescence signal in the stomach ([6]; 10 min after gavage of 1.5 mg in 70 μL water, 590 nm/700 nm): obvious near-infrared fluorescence signal
fluorescence signal in the intestinal region ([6]; 180 min after gavage of 1.5 mg in 70 μL water, 590 nm/700 nm): obvious near-infrared fluorescence signal

COc1ccc(-n2c(C)cc(CO)c2C)cc1 [P7, 1-(4-methoxyphenyl)-2,5-dimethyl-3-hydroxymethylene-^1H-pyrrole]
time for conversion into the radical cation ([1]; acidic buffer solution pH=2.0-3.0, atmosphere of air): ≤ 30 min
gastrointestinal imaging effect ([6]; compared with P3^⋅+): not as good as that of P3^⋅+

Like-named read-outs stand apart in the source and are kept apart here.
